Data published in US12492204B2, “Substituted (7H-pyrrolo[2,3-D]pyrimidin-4-yl) amino compounds useful as JAK 1 inhibitors” (CHEMWERTH, INC., priority 2019, dated 2025).

The chains behind the UniProt entries cited, without tags or fusion partners. Where a name states a change or a piece, a line headed by the entry shows the natural chain unless it says otherwise.
UniProt P29597: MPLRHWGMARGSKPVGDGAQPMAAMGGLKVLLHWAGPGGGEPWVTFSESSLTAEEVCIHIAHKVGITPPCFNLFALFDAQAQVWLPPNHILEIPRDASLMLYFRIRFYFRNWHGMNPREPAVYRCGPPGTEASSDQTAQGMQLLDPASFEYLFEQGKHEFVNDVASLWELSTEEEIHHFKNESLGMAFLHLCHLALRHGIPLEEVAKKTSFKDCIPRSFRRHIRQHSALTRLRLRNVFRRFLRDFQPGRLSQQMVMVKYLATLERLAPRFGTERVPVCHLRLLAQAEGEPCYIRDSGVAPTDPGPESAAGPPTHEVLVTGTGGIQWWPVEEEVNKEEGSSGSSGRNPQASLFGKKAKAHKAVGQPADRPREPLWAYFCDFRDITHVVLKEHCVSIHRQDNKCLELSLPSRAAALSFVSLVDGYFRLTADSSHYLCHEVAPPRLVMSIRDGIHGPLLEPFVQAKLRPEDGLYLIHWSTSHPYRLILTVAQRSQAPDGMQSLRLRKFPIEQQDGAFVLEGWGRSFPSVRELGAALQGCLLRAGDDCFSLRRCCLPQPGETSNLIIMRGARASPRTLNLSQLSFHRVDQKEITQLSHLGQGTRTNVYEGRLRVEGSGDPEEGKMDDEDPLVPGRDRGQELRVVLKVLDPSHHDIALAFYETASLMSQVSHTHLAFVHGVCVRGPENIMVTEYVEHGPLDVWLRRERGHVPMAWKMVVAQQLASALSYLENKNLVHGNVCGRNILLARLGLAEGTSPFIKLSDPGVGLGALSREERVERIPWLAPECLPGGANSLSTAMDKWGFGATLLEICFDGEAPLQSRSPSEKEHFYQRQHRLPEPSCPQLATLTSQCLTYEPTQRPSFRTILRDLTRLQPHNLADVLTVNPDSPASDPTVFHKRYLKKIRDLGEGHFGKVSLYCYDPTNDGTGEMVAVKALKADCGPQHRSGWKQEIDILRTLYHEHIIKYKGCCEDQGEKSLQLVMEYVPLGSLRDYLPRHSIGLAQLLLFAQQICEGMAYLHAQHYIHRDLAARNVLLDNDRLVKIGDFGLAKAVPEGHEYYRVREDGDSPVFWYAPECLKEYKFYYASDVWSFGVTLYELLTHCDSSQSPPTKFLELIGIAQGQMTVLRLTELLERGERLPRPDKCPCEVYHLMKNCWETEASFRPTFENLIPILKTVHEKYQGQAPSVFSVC

Biological target: TYK2 (Homo sapiens (Human), UniProt P29597)
Assay: TYK2 enzymatic assay
Type: biochemical
Settings: ATP 16 μM, Peptide30

In the case of `O=C(Nc1nc2cccc(-c3ccc(CN4CCS(=O)(=O)CC4)cc3)n2n1)C1CC1` [Filgotinib, reference compound], the IC50 is reported as 0.216 µM.
